The values below come from paper PMC4401318 (ACS Chemical Neuroscience, 2015).

Amino acid sequences for entries named in this document (tags omitted). A change or cut given only in a name is not applied to a line headed by its entry.
UniProt P41146: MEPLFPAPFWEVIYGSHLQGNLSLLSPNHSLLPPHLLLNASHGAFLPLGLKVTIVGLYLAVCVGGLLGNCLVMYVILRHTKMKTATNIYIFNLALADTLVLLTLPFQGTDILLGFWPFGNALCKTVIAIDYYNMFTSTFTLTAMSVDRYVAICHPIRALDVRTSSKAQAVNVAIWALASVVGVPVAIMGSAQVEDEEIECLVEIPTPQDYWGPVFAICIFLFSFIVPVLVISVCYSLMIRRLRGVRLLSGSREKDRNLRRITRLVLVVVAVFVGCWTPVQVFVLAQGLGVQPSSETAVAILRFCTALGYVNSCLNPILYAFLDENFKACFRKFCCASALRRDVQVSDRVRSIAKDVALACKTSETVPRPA
UniProt P35372, whole entry: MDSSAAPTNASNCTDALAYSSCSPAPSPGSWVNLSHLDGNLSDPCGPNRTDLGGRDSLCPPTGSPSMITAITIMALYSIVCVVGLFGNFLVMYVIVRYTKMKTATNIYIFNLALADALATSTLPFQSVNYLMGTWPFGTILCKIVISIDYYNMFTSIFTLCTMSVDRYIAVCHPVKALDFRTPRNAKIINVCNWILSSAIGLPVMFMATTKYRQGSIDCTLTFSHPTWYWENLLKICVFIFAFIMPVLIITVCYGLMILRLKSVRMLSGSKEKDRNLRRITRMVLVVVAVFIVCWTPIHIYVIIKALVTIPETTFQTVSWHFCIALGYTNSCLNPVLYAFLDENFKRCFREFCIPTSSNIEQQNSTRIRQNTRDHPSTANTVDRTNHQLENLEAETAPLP
UniProt P41143, whole entry: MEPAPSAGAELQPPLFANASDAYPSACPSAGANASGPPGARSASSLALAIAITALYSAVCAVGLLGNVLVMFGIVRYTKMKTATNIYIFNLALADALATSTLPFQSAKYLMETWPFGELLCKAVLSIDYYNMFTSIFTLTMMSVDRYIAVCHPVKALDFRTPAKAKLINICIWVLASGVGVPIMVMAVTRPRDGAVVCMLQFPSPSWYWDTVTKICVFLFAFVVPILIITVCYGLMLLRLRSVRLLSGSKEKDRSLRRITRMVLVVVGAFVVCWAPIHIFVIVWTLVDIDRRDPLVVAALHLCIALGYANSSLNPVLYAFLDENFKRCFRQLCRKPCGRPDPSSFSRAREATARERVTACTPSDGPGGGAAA

One assay has as its target NOP receptor (Homo sapiens, UniProt P41146). Nature of the assay: [35S]GTPγS binding stimulation. The format is biochemical. In general terms: Binding of GTPγS marks nucleotide exchange on a G protein.
Assay [1] concerns the target T1, MOP receptor (Homo sapiens, UniProt P35372). In words: biochemical.
The target of a further assay is DOP receptor (Homo sapiens, UniProt P41143). Nature of the assay: [35S]GTPγS binding stimulation. It is filed as biochemical.
Assay [2] addresses T1, MOP receptor. Nature of the assay: Radioligand competition binding, MOP. A general note: Displacement assays read how much labelled ligand stays bound in the presence of the test substance.

For `CC(C)[C@@H](CN1CCC(c2cccc(O)c2)CC1)NC(=O)[C@H]1Cc2ccc(O)cc2CN1` [Compound 6, (R)-7-Hydroxy-N-((S)-1-(4-(3-hydroxyphenyl)piperidin-1-yl)-3-methylbutan-2-yl)-1,2,3,4-tetrahydroisoquinoline-3-carboxamide], at NOP receptor, the EC50 (usually the concentration needed to bring the measured effect to its halfway point) was more than 10 µM.

For the molecule `CC(C)[C@@H](CN1CC[C@@](C)(c2cccc(O)c2)[C@@H](C)C1)NC(=O)[C@H]1Cc2ccc(O)cc2CN1` [JDTic, (3R)-7-hydroxy-N-((1S)-1-{[(3R,4R)-4-(3-hydroxyphenyl)-3,4-dimethyl-1-piperidinyl]methyl}-2-methylpropyl)-1,2,3,4-tetrahydro-3-isoquinolinecarboxamide, reference compound], the EC50 on MOP receptor [1] and at DOP receptor was more than 10 µM in each case. On MOP receptor [1], `CC(C)[C@@H](CN1CCC(c2ccccc2)CC1)NC(=O)[C@H]1Cc2ccc(O)cc2CN1` [Compound 8, (R)-7-Hydroxy-N-((S)-3-methyl-1-(4-phenylpiperidin-1-yl)butan-2-yl)-1,2,3,4-tetrahydroisoquinoline-3-carboxamide] registered an EC50 of more than 10 µM. Besides, at MOP receptor [2], the Ki (commonly the equilibrium dissociation constant of an inhibitor or competing ligand from its target) was 0.015 ± 0.00244 µM.
